Data on one compound can be found in article PMC12274739, “Differential substrate degradation by super-degron: EGFP in wild-type mouse cells, PD-1 requires CRBN humanization” (iScience, 2025).

Sequences of proteins named here, by UniProt entry; tags and fusion partners are left off.
UniProt Q8C7D2, whole entry, looked up, stated change not applied: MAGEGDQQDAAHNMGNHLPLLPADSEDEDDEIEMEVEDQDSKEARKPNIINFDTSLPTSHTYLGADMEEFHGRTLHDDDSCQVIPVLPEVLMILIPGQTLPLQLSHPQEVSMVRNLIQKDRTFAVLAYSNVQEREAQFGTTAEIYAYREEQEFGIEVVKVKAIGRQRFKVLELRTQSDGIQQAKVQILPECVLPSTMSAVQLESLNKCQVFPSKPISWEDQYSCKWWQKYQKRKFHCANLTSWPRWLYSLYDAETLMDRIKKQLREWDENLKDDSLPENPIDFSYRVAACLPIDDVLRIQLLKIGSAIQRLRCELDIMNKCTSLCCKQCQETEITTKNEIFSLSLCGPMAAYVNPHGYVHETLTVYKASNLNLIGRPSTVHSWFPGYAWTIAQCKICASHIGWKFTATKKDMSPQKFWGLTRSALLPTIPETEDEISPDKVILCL

The target of this assay is EGFP-ZFP91 (UniProt P42212+Q8C7D2, F64L/H231L/INS1V/S65T). Kind of assay: Degradation of EGFP-ZFP91 in mESCs by thalidomide analogs (Figure 5). It counts as cell-based, mouse. The settings on record: read-out: DC50, EGFP-ZFP91; CrbnI391V/I391V mESCs, stable, Figure 5E.

What is called DC50 is the midpoint of the concentration-degradation curve. As to `Nc1cccc2c1C(=O)N(C1CCC(=O)NC1=O)C2=O` (stereo not shown) [POM, pomalidomide], the DC50 is 8.88 nM.
